Read-outs that look alike come from different tables or passages of the source.
How the values were obtained:
U118MG cells = experiment: Cell viability, Alamar Blue, 7-day incubation, U118MG; format: cell-based; conditions: Homo sapiens, U-118-MG, 168 h, MGMT +, error SEM
Procedure: Anticancer activity of C8 substituted imidazotetrazines. With a suite of imidazotetrazines in hand, each compound was evaluated against a panel of human GBM cell lines (Table 1a, Table 1b).

U3054MG GBM cell line = experiment: Cell viability, Alamar Blue, 7-day incubation, patient-derived U3054MG; conditions: Homo sapiens, 168 h, read-out: IC50 U3054MG
[1] = Table 1a, 7 days, read-out: IC50 U118MG
[2] = Table 1b, read-out: 7-day IC50 U118MG

SMILES | IC50 (U118MG cells; [1]) [µM] | IC50 (U3054MG GBM cell line) [µM] | IC50 (U118MG cells; [2]) [µM]
CNC(=O)c1ncn2c(=O)n(C)nnc12 [Compound 4, N,3-dimethyl-4-oxo-3,4-dihydroimidazo[5,1-d][1,2,3,5]tetrazine-8-carboxamide] | 280 ± 20 | 290 ± 20 | –
CN(C)C(=O)c1ncn2c(=O)n(C)nnc12 [Compound 5, N,N,3-trimethyl-4-oxo-3,4-dihydroimidazo[5,1-d][1,2,3,5]tetrazine-8-carboxamide] | 130 ± 30 | 132 ± 6 | –
Cn1nnc2c(C(N)=O)ncn2c1=O [TMZ, temozolomide, reference compound] | – | 370 ± 40 | –
CC(=O)c1ncn2c(=O)n(C)nnc12 [Compound 17, 8-acetyl-3-methylimidazo[5,1-d][1,2,3,5]tetrazin-4(3H)-one] | 115 ± 9 | 125 ± 4 | –
Cn1nnc2c(Br)ncn2c1=O [Compound 18, 8-bromo-3-methylimidazo[5,1-d][1,2,3,5]tetrazin-4(3H)-one] | – | – | 80 ± 20
Cc1ncn2c(=O)n(C)nnc12 [Compound 14, 3,8-dimethylimidazo[5,1-d][1,2,3,5]tetrazin-4(3H)-one] | 7 ± 1 | – | –
CCN(CC)C(=O)c1ncn2c(=O)n(C)nnc12 [Compound 6, N,N-diethyl-3-methyl-4-oxo-3,4-dihydroimidazo[5,1-d][1,2,3,5]tetrazine-8-carboxamide] | 80 ± 10 | – | –
Cn1nnc2c(-c3ccc(Cl)cc3)ncn2c1=O [Compound 26, 8-(4-chlorophenyl)-3-methylimidazo[5,1-d][1,2,3,5]tetrazin-4(3H)-one] | – | – | 5 ± 1
Cn1nnc2c(-c3ccccc3)ncn2c1=O [Compound 23, 3-methyl-8-phenylimidazo[5,1-d][1,2,3,5]tetrazin-4(3H)-one] | 3 ± 1 | 18 ± 1 | –
Cn1nnc2c(C(N)=S)ncn2c1=O [Compound 28, 3-methyl-4-oxo-3,4-dihydroimidazo[5,1-d][1,2,3,5]tetrazine-8-carbothioamide] | 12 ± 2 | – | –
Cn1nnc2c(C(=O)O)ncn2c1=O [Compound 3] | 370 ± 20 | – | –
Cn1nnc2c(Cl)ncn2c1=O [Compound 19, 8-chloro-3-methylimidazo[5,1-d][1,2,3,5]tetrazin-4(3H)-one] | 60 ± 20 | 87 ± 4 | –
Cc1cnc(-c2ncn3c(=O)n(C)nnc23)o1 [Compound 27, 3-methyl-8-(5-methyloxazol-2-yl)imidazo[5,1-d][1,2,3,5]tetrazin-4(3H)-one] | 70 ± 20 | 123 ± 6 | –

— patent US12234240B2, “Substituted imidazo[5,1-d][1,2,3,5]tetrazines for the treatment of cancer” (The Board of Trustees of the University of Illinois, priority 2018, dated 2025)
